The subject of the experiment is CD-1 male mice. In words: Acetic acid-induced abdominal writhing assay. The experiment is classed as in vivo. A general note: In writhing tests, fewer writhes than in controls are read as antinociception.

The values that follow come from patent US11007199B2, “Compositions and methods for ameliorating pain and reducing fever” (The Board of Supervisors of Louisiana State University and …, priority 2017, dated 2021).

SMILES strings stand for the structures.

For the compound `CC(=O)Nc1ccc(O)cc1` [ApAP, N-Acetyl-4-aminophenol, reference compound], the “number of writhes induced by injection of acetic acid” value (FIG. 8, vehicle only nearly 40) is listed as 20. The ED50 (usually the dose at which the effect has come halfway, by size or by number of responders) (Mus musculus, ip, read-out: calculated 50% effective dose (ED50) based on the writhing assay) was 68.6 mg/kg.
